We go through 1 substance from article PMC8932640 (Advanced therapeutics, 2021).

This assay has as its system U87MG cells. Briefly: Validation of intracellular ligation. The class given is cell-based. Particulars: control group: cells treated with colchicine before incubation with RGD-photo-ODIBO; UV irradiation.

Take “Cetuximab-coumarin-N3: Cetuximab functionalized with coumarin-N3; mimics Cetuximab-TCO”: the “fluorescence signal under the FITC channel” value is “no significant fluorescence signal”.
